# Measurements as given in patent US7439226B2, “Serine protease inhibitors” (The United States of America as represented by the …, priority 2003, dated 2008).
# Target: T1, 70-kDa activated matriptase (Homo sapiens, UniProt Q9Y5Y6)
# T1 sequence (Q9Y5Y6 615-855 limits assumed): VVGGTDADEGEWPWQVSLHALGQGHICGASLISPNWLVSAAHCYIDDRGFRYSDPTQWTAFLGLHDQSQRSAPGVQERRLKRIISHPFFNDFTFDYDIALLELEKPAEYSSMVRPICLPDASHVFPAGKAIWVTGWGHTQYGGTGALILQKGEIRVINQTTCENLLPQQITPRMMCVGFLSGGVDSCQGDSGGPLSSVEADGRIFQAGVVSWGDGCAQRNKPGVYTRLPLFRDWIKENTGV
# T1 sequence (Q9Y5Y6 190-614 partner limits assumed): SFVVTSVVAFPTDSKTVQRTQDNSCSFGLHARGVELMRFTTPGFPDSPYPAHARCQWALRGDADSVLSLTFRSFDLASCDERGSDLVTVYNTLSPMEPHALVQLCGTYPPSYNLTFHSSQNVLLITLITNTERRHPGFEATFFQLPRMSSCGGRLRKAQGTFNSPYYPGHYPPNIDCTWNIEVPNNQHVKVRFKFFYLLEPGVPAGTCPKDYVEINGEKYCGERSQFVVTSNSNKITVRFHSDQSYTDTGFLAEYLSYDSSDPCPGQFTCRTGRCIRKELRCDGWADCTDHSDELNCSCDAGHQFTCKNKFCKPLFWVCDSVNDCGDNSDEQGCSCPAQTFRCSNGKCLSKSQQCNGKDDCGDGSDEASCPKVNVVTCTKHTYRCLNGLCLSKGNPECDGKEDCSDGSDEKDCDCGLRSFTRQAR
# Test: Matriptase inhibition, fluorescent substrate N-t-Boc-Gln-Ala-Arg-AMC, Ki by Dixon plots
compound,measurement,value
CC[C@H](C)[C@@H]1NC(=O)[C@@H]2CCCN2C(=O)[C@@H]2CCCN2C(=O)[C@H]([C@@H](C)CC)NC(=O)[C@H](CO)NC(=O)[C@H](CCCCN)NC(=O)[C@H]([C@@H](C)O)NC(=O)[C@@H]2CSSC[C@H](NC1=O)C(=O)N[C@@H](Cc1ccccc1)C(=O)N1CCC[C@H]1C(=O)N[C@@H](CC(=O)O)C(=O)NCC(=O)N[C@@H](CCCNC(=N)N)C(=O)N2 [SFTI-1],pKi,9.04

# pKi: −log10 of the molar value.
